Experimental findings from patent US20150004189A1 are described below.

One may read the IC50 as the concentration that inhibits the measured activity by half. Read a high IC50 as weaker potency.

The target of test [1] is HLA-DP DPB1*0301 (human). The experiment in a line: inhibition of radiolabeled peptide binding to purified HLA-DP.
Test [2] has as its target HLA-DP DPB1*0201 (human). Described as above.
For test [3], the target named is HLA-DP molecule DPB1*0301 (human). Described as above.
Test [4] concerns the target HLA DP molecule DPB1*0301 (human). The experiment in a line: inhibition of radiolabeled peptide binding to purified HLA DP.
In test [5] the target is HLA-DP DPB1*2001 (human). Kind of test: inhibition of radiolabeled peptide binding to purified HLA-DP.
Test [6] concerns the target HLA-DR DRB1*0162 (so in the source) (human). Kind of test: inhibition of radiolabeled peptide binding to purified HLA class II.
In test [7] the target is HLA-DP DPB1*1401 (human). The experiment in a line: inhibition of radiolabeled peptide binding to purified HLA-DP.
For test [8], the target named is HLA-DP DPB1*0501 (human). Described as above.

In the case of “Cup s 1 peptide 96-110 … (Peptide ID 3324.0624)”, the IC50 is 7020 nM in test [1] and 18 nM in test [2]. Consider Der p 4 (386-400) peptide 3324.0978, for which the IC50 in test [1] was determined as 4120 nM. In test [3], “Poa p 5 peptide, position 61, … (Peptide ID 3324.1575)” came in with an IC50 of 39 nM. “Cha o 1 peptide 96-110 … (Peptide ID 3324.0523)”: the values for the IC50 in test [1] and in test [2] were 96 nM and 5000 nM, respectively. For “Alt a 1 peptide, position 116 (Peptide ID 3324.0014)”, the IC50 in test [4] was 241 nM. Turning to “Que a 1 peptide 141-155 … (Peptide ID 3324.1584)”, the IC50 in test [1] stood at 133 nM; in test [2], 46 nM.

Der p 1 (176-190) peptide 3324.0831 returned an IC50 in test [1] of 4340 nM. For “Lol p 11 peptide 116-130 … (Peptide ID 3337.0029)”, the IC50 in test [1] was determined as 1410 nM; in test [2] it was 80 nM. For the substance “Poa p 5 peptide 176-190, … (Peptide ID 3324.1578)”, in test [5], the IC50 came to 13 nM. For Der p 4 (411-425) peptide 3324.0980, in test [1], the IC50 was 8.4 nM. As to “Der p 4 peptide 411-425, Peptide ID 3324.0980”, in test [6], the half-maximal inhibitory concentration (IC50) stood at 24 nM. In test [2], “Cup s 1 peptide 91-105 … (Peptide ID 3324.0618)” had an IC50 of 304 nM. “Lol p 5 1 peptide, position 71, … (Peptide ID 3324.1175)” showed an IC50 in test [3] of 339 nM. Aln g 1 (11-25) peptide 3324.0004: in test [1], the half-inhibitory concentration (IC50) came to 820 nM. As for “Der p 4 peptide 482-496, Peptide ID 3324.0971”, the IC50 in test [6] was 16 nM. Regarding “Que a 1 peptide 21-35 … (Peptide ID 3324.1588)”, the IC50 in test [2] came out at 171 nM.

Consider “Que a 1 peptide 11-25 … (Peptide ID 3324.1587)”, for which the IC50 in test [1] was 326 nM; in test [2], 28 nM. Der p 1 (136-150) peptide 3324.0829 returned an IC50 in test [1] of 1600 nM. Consider “Alt a 1 peptide, position 6 (Peptide ID 3324.0015)”, for which, in test [4], the IC50 amounted to 61 nM. Consider “Sal k 1 1 peptide 191-205, … (Peptide ID 3324.1590)”, for which the IC50 in test [2] stood at 495 nM. Turning to Bet v 1 (96-110) peptide 3324.0353, in test [1], the IC50 is 5610 nM. The substance “Alt a 1 peptide, position 141 (Peptide ID 3324.0011)” gave a half-maximal inhibitory concentration (IC50) in test [4] of 16900 nM. In the case of “Cup a 1 peptide 71-85 … (Peptide ID 3324.0607)”, the IC50 in test [1] was 7140 nM; in test [2] it was 819 nM.

On to Der p 4 (86-100) peptide 3324.0981, for which the IC50 in test [7] was 1320 nM; in test [1], 2.5 nM; in test [8] it was 1600 nM. Turning to “Der p 4 peptide 476-490, Peptide ID 3324.0975”, in test [6], the IC50 came out at 281 nM. Substance “Poa p 5 peptide 131-145, … (Peptide ID 3324.1576)” came in with an IC50 in test [8] of 800 nM. Regarding “Fel d 1 2 peptide 36-50, Peptide ID 3324.1055”, the IC50 in test [6] turned out to be 2470 nM. On the same count and under the same terms, with “Der p 4 peptide 321-335, Peptide ID 3324.0977” the figure was 9.2 nM. “Dac g 2 peptide 16-30 … (Peptide ID 3324.0658)”: the IC50 is 18000 nM in test [1] and 2430 nM in test [2].

The substance Der p 4 (476-490) peptide 3324.0975 returned an IC50 in test [1] of 24 nM. As to Bet v 1 (111-125) peptide 3324.0352, the IC50 in test [1] is 12300 nM. The substance “Lol p 5 1 peptide, position 306, … (Peptide ID 3324.1184)” returned an IC50 in test [3] of 81 nM. Take “Fel d 1 2 peptide 26-40, Peptide ID 3324.1052”: the IC50 in test [6] stood at 555 nM. For “Cup a 1 peptide 316-330 … (Peptide ID 3324.0606)”, the IC50 in test [1] is 39600 nM. For “Que a 1 peptide 16-30 … (Peptide ID 3324.1585)”, the figures for the IC50 in test [1] and in test [2] were 30 nM and 36 nM, respectively. As for “Der f 1 peptide 136-150, Peptide ID 3324.0666”, the IC50 in test [6] amounted to 65 nM. For “Lol p 3 peptide, position 51, … (Peptide ID 3337.0031)”, in test [3], the IC50 stood at 6240 nM.

As to “Sal k 1 1 peptide 321-335, … (Peptide ID 3324.1589)”, in test [2], the IC50 was 1780 nM. In turn, “Lol p 5 1 peptide, position 151, … (Peptide ID 3324.1167)” registered an IC50 in test [3] of 78 nM. “Der p 1 peptide 136-150, Peptide ID 3324.0829” gave an IC50 in test [6] of 110 nM. On the same count and under the same terms, as for “Der p 1 peptide 131-145, Peptide ID 3324.0832”, the figure is 70 nM; as for “Der p 4 peptide 251-265, Peptide ID 3324.0976”, 14 nM; as for “Der f 1 peptide 131-145, Peptide ID 3324.0670”, 501 nM. As for “Cup s 1 peptide 211-225 … (Peptide ID 3324.0616)”, the IC50 in test [8] turned out to be 633 nM; in test [2] it was 92 nM. Turning to “Der p 4 peptide 96-110, Peptide ID 3324.0987”, in test [6], the IC50 came out at 4780 nM. Consider “Lol p 3 peptide, position 11, … (Peptide ID 3324.1142)”, for which the IC50 in test [3] was determined as 11800 nM. Turning to Bet v 6 (206-220) peptide 3324.0387, the IC50 in test [1] worked out at 0.039 nM. For “Dac g 2 peptide 11-25 … (Peptide ID 3324.0657)”, the IC50 is 3070 nM in test [1] and 672 nM in test [2]. As for Der p 4 (321-335) peptide 3324.0977, the IC50 in test [1] was determined as 988 nM. Cha o 1 (86-100) peptide 3324.0517 had an IC50 in test [1] of 3.1 nM. For Der p 1 (131-145) peptide 3324.0832, in test [1], the IC50 came out at 20 nM.

As to “Alt a 1 peptide, position 11 (Peptide ID 3324.0017)”, the IC50 in test [4] amounted to 71 nM.

In turn, Der p 4 (416-430) peptide 3324.0974 yielded an IC50 in test [1] of 0.67 nM. In turn, “Pha a 1 peptide, position 186, … (Peptide ID 3324.1428)” displayed an IC50 in test [3] of 8500 nM.

Regarding “Pha a 5 peptide, position 181, … (Peptide ID 3324.1442)”, the IC50 in test [3] came to 22 nM.

In the case of “Lol p 11 peptide 111-125 … (Peptide ID 3324.1138)”, the results for the IC50 in test [1] and in test [2] were 764 nM and 110 nM, respectively. On to Der p 4 (482-496) peptide 3324.0971, for which the IC50 in test [1] was found to be 286 nM.

Regarding “Cup a 1 peptide 66-80 … (Peptide ID 3324.0604)”, the results for the IC50 in test [1] and in test [2] were 1600 nM and 1200 nM, respectively.

In the case of “Der p 4 peptide 381-395, Peptide ID 3324.0986”, the IC50 in test [6] came out at 170 nM. For the substance “Pha a 5 peptide, position 201, … (Peptide ID 3324.1433)”, the IC50 in test [3] is 15 nM.

On to “Lol p 2 peptide 56-70 … (Peptide ID 3324.1140)”, for which the IC50 in test [2] stood at 9540 nM. Turning to “Der p 4 peptide 386-400, Peptide ID 3324.0978”, the IC50 in test [6] came out at 75 nM. Regarding “Poa p 5 peptide, position 56, … (Peptide ID 3324.1571)”, the IC50 in test [3] amounted to 67 nM. Regarding “Alt a 1 peptide, position 143 (Peptide ID 3324.0016)”, the IC50 in test [4] stood at 1120 nM.
